# PubChem BioAssay AID488835 (Broad Institute, 2010)
# The chains behind the UniProt entries cited, without tags or fusion partners. Where a name states a change or a piece, a line headed by the entry shows the natural chain unless it says otherwise.
# UniProt Q9H3R0: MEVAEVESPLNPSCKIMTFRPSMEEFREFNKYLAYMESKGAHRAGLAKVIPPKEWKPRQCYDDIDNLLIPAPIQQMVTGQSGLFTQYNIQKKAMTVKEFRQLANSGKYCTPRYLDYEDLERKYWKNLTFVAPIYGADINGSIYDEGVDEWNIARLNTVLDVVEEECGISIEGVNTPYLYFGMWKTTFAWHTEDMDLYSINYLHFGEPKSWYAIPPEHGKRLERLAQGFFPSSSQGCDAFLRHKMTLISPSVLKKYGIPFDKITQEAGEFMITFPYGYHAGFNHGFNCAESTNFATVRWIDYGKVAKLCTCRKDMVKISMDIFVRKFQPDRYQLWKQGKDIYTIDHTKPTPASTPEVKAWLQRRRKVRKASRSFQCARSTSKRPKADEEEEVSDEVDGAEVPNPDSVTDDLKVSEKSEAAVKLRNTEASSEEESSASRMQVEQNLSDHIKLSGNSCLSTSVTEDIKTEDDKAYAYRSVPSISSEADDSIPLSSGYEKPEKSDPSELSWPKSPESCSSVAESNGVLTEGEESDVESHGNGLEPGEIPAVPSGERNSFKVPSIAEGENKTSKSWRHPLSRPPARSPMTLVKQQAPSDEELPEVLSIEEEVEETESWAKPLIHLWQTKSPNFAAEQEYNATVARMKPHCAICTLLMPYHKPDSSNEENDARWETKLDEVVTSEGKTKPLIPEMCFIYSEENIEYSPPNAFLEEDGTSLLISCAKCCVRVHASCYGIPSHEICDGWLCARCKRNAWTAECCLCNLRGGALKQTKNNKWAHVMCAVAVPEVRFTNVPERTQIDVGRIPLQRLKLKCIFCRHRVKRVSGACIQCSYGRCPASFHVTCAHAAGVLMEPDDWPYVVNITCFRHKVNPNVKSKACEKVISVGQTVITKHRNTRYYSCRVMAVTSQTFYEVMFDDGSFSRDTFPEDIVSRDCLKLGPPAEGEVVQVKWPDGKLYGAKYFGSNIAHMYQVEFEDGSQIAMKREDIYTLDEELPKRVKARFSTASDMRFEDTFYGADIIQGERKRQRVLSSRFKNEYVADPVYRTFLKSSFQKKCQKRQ
# Only a part is listed here, and it is no random draw. Entries with a potency or affinity are not part of this list. Activity calls are given as the source filed them.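 Rule for the calls: active = Half-maximal inhibitory dose from the fit at or below ten times the top valid tested dose; inconclusive = Invalid fit, or flat curve showing 30 to 70% inhibition; inactive = the rest.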
# Target: Lysine-specific demethylase 4C (Homo sapiens) (UniProt Q9H3R0)
# Experiment: GASC-1 (JMJD2C) histone demethylase inhibitors, dose response, biochemical, DELFIA europium, cherry-picked samples (AID 488835);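 note: signal is the H3K9me2 demethylation product detected by a dimethyl-specific antibody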
# Conditions: GST-JMJD2C(1-420), H3K9me3 demethylation; at 6 µM (top of the series)
row,Compound,"activity change, negative = inhibition"
1,Cc1ccc(OCC(=O)OC2CN3CCC2CC3)cc1 (stereo unspecified),inactive: 2.04%
